{"source": "paper PMC7381267", "about": "“A Bromodomain-Containing Protein 4 (BRD4) Inhibitor Suppresses Angiogenesis by Regulating AP-1 Expression” (Frontiers in Pharmacology, 2020)", "tested_on": "chick embryo CAM vasculature", "test": "Chick embryo chorioallantoic membrane (CAM) anti-angiogenesis assay; further: key: An inhibitory effect observable but not obvious on the generation of third-grade vessels was indicated by '+'; an obvious medium-level inhibitory effect on secondary vessels was indicated by '++'; an obvious potent inhibitory effect on primary blood vessels was indicated by '+++'", "assay_type": "in vivo", "conditions": "50 μg/ml on CAM of 9-day-old chick embryos, 48 h; egg 5", "protocol": "Fertilized white leghorn chicken eggs were obtained from the Avian Farm of South China Agriculture University (Guangzhou, China) and the shells were cleaned with 1% geramine. The eggs were incubated under 50–60% humidity at 37.5°C. A small window (10 × 10 mm^2) was cut above the air chamber of egg while the chick embryo was growing through the ninth day. BET family member inhibitors or DMSO (dissolved in 30 µl of phosphate-buffered saline [PBS, pH 7.4]) were placed directly onto the live chick embryo CAM through the window at the indicated concentrations and incubated for 48 h. Then, the eggshells were cut carefully along the axis of the median line, and the content was discarded. […] The microvessel density (MVD) was calculated as the percentage of blood vessel area in the total drug-treated area using the Image-Pro Plus 6.0 software (IPP 6.0, Media Cybernetics, Inc., Rockville MD, USA).\nThe effects of all these selected compounds on angiogenesis were first determined through use of the chick embryo CAM model. The CAM assay is a well-established model for screening anti-angiogenic agents, because the ability of compounds to prevent blood vessel formation can be easily detected ([Deryugina and Quigley, 2008]; [Chen et al., 2010]). […] The CAMs of chick embryos were photographed, and the inhibition ratio indicating angiogenesis was calculated and analyzed. […]", "data": [{"smiles": "Cc1sc2c(c1C)C(c1ccc(Cl)cc1)=N[C@@H](CC(=O)OC(C)(C)C)c1nnc(C)n1-2", "note": "[(+)-JQ1 (1), reference compound]", "values": [{"measurement": "Anti-angiogenic activity, egg number 5", "result": "+"}]}]}
